# From publication PMC7872314, “Modeling Bioavailable Concentrations in Zebrafish Cell Lines and Embryos Increases the Correlation of Toxicity Potencies across Test Systems” (Environmental Science & Technology, 2020)
# Test system: zebrafish cell lines vs zebrafish embryo
# Assay: Potency ratios IC50;x/EC50;x (cytotoxicity assays vs mFET)
# Conditions: median over cytotoxicity endpoints, nominal, 48 h cells / 48 hpf mFET
smiles,measurement,value
"CCCSc1ccc2nc(NC(=O)OC)[nH]c2c1 [Albendazole, albendazole]",potency ratio IC50;nom/EC50;nom (median),17.0
